Earlier results, collected in patent publication US10058633B2, “Biodegradable scaffolds” (Board of Regents of the University of Texas System, priority 2010, dated 2018).

Settings: in vivo; cited from earlier work

In the case of VEGF, the half-life is listed as 50 min.
